This is a sample that favours compounds with a hit; in the whole collection about 1.7% have one here.
GLP1R cytotox = cytotoxicity in counter-screen for GLP-1R inverse agonists; HEK293 cAMP-luciferase reporter cells, luminescence, 24 h; Potency, µM (top dose mostly 38.3 µM), for inactives: at the highest dose activity change, negative = inhibition, actives largely listed as inhibitors; 410,000 tested, 0.13% active; AID 624418;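 further: loss of luciferase light is scored as toxicity; potency means the concentration at half of the fitted maximal effect; on the % scale 0 is the no-effect control and ±100 the full control effect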
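Compound-treated cells are incubated 24 hr at 37 deg C under 5% CO2 after a 12 hour attachment period, then luciferase detection reagent is added and luminescence is measured following 12 min at room temperature; lowered signal indicates toxicity.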
miR-21 FLuc = raises the signal of a miR-21 reporter | HeLa miR-21 FLuc reporter, luciferase, 48 h | Potency, µM (highest dose often 38.3 µM), without a hit: at the top dose reporter change, positive = more light | 340,000 tested, under 10 active; active = well fitted rising curve with a large enough effect; inconclusive = small, poorly fitted or top-dose-only effect; inactive = no such curve, though single readings can be large or run the other way;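 note: % of control where 0% means no effect; miR-21 action dims this reporter so a rising signal means less miR-21 action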
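Compounds were titrated across several concentrations (up to approximately 40 uM) and incubated 48 hours with HeLa miR-21-FLuc reporter cells (miR-21 target sequence downstream of FLuc, endogenous miR-21). Readout was firefly luciferase luminescence after lytic detection reagent.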
GLP-1R inv ag = inverse agonists of human GLP-1 receptor; P43220; HEK293 GLP-1R CRE-luciferase, luminescence, 24 h; GLP-1R form is constitutively active; Potency, µM (titrated, usually from 38.3 µM), without a hit: top-dose activity change, negative = inhibition, actives largely listed as inhibitors; 410,000 tested, 1.6% active; AID 624417; further: potency means the concentration at half of the fitted maximal effect; on the % scale 0 is the no-effect control and ±100 the full control effect; nearly all actives have a fitted effect of over 55% in size
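Stable HEK293 clone (constitutively active GLP-1R + cAMP-response luciferase); 200 cells/uL plated, 12 h pre-culture, compound 24 hr, 37 deg C/5% CO2; detection reagent 12 min RT; luminescence.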
Pin1 inhibitor = blocks the human prolyl isomerase Pin1; Q13526; 390,000 tested, 0.009% active; Potency, µM (highest dose often 115 µM), inactives show at the top dose activity, negative = inhibition, most hits filed as inhibitors; AID 504891; Pin1 FP peptide displacement, HiFluor488, 10 min; active means well fitted inhibition curve with a large enough effect in the polarisation, with a control signal flat, not every such curve was filed as active; inconclusive means small, poorly fitted or top-dose-only effect, or effect the other way, or a change in a side signal; inactive means no such curve, though single readings can be large or run the other way; the % refers to the polarisation; further: potency means the concentration at half of the fitted maximal effect; on the % scale 0 is the no-effect control and ±100 the full control effect
PTHR1 ag = activates the human parathyroid hormone receptor PTHR1; 410,000 tested, 0.075% active; HEK293 GP2 PTHR1 cells, GloSensor cAMP luminescence, 1 h; AID 743266; Q03431; Potency, µM (highest dose often 115 µM), without a hit: at the top dose activation, hits mostly activators; further: potency means the concentration at half of the fitted maximal effect; nearly all actives have a fitted effect of over 55% in size
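HEK-293-derived GP2 cells expressing PTHR1 and a GloSensor cAMP reporter, 3,000/well, plated overnight, given luciferin plus IBMX (each 0.5 mM as added) for 1 h at 37 °C, then compound for 1 h at 37 °C. Luminescence was read after 15 min at room temperature.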
GLP1R ag = agonists of human GLP-1 receptor; P43220; HEK293 GLP-1R CRE-luciferase, luminescence, 4-6 h; cells express a hypersensitive GLP-1R form; Potency, µM (top dose mostly 45.6 µM), for the others: top-dose activation, actives largely listed as activators; 380,000 tested, 0.007% active; further: potency means the concentration at half of the fitted maximal effect; % of control where 0% means no effect
An asterisk follows results filed as active; i = inactive; ? = inconclusive; / = not tested or not shown; [ ] = another dose, or the depositor's remark. Unless noted, the call rests on the fitted dose curve; in most records, active means well fitted curve in the direction sought with a large enough effect; inconclusive means small, poorly fitted or top-dose-only effect, or another doubt; inactive means no such curve, though single readings can be large; an effect the other way counts as inactive or inconclusive.

cpd	SMILES	Pin1 inhibitor	miR-21 FLuc	GLP1R cytotox
1	Cc1ccc(-n2ncc3c(N(CC(C)C)CC(C)C)ncnc32)c(C)c1	-3.4%	10.1%	1.4%
2	Cc1ccc(-n2ncc3c(NCC(C)C)ncnc32)c(C)c1	?	8.1%	0.3%
3	FC(F)(F)C(F)(F)C(F)(F)C(F)(F)C(F)(F)C(F)(F)C(F)(F)C(F)(F)Br	/	/	/
4	c1ccc(COc2ccc(-c3cc4nc(NCCOc5ccccc5)ccn4n3)cc2)cc1	/	/	-1.8%
5	c1ccc(COc2cccc(-c3cc4nc(NCCOc5ccccc5)ccn4n3)c2)cc1	/	/	5.6%
6	Cc1cc2c(s1)c1cnn(Cc3cccc(Br)c3)c(=O)c1n2C	3.5%	/	/
7	O=C(Nc1ccccc1)c1ccc2nc(-c3ccco3)c(-c3ccco3)nc2c1	?	11.1%	11.7%
8	CC(=O)c1ccc(NC(=O)c2ccc3nc(-c4ccco4)c(-c4ccco4)nc3c2)cc1	19µM*	10.5%	-21.2%
9	COc1ccc(NC(=O)/C=C\C(=O)N(c2ccc(C(C)C)cc2)C(C(=O)NCc2ccco2)c2ccc(C)cc2)cc1 (stereo not given)	2.5%	?	-19.3%
10	CCn1c(=O)c(C(=O)Nc2ccc(C(C)=O)cc2)nc2ccccc21	0.1%	-30.9%	5.6%
11	CCN(CC)c1ccc(N=Nc2nn(C)c(C)c2[N+](=O)[O-])cc1	43.7%	-86.3%	4.47µM*
12	CCCCNC(=O)CSc1nc2ccccc2nc1Cc1ccc(C)cc1	3.3%	-0.3%	4.6%

cpd	GLP-1R inv ag	GLP1R ag	PTHR1 ag
1	2.82µM*	/	i
2	?	/	0.0%
3	/	-2.9%	/
4	?	-4.4%	i
5	10µM*	3.0%	-13.6%
6	/	/	/
7	0.0%	-9.2%	-7.2%
8	?	-5.7%	-16.8%[57.5 µM]
9	10µM*	/	-9.9%
10	5.6%	0.4%	-29.5%
11	6.4%	18.1%	-24.8%
12	0.0%	2.1%	-20.3%

Compound profiles (already shown). Values in the order: Pin1 inhibitor	miR-21 FLuc	GLP1R cytotox	GLP-1R inv ag	GLP1R ag	PTHR1 ag
Listed for COc1ccc(NC(=O)/C=C\C(=O)N(c2ccc(C(C)C)cc2)C(C(=O)NCc2ccco2)c2ccc(C)cc2)cc1 (stereo not given) : 2.5%	?	-19.3%	10µM*	/	-9.9%
Listed for c1ccc(COc2cccc(-c3cc4nc(NCCOc5ccccc5)ccn4n3)c2)cc1 : /	/	5.6%	10µM*	3.0%	-13.6%
Listed for Cc1cc2c(s1)c1cnn(Cc3cccc(Br)c3)c(=O)c1n2C : 3.5%	/	/	/	/	/

Going on with the list.
cpd	SMILES	Pin1 inhibitor	miR-21 FLuc	GLP1R cytotox
13	CCCCN(C)C(=O)CSc1nc2ccccc2nc1Cc1ccc(C)cc1	47.7%	20.1%	-19.8%
14	Cn1c(-c2ccccc2)cnc1SCC(=O)N1CCCc2ccccc21	10.6%	-25.7%	0.1%
15	O=C(CSc1nc2ccccc2nc1SCC(=O)N1CCCCC1)N1CCCCC1	4.1%	0.0%	?
16	Cn1c(-c2ccccc2)cnc1SCC(=O)N1CCCCC1	-2.3%	18.1%	-13.2%
17	COc1ccccc1N1CCN(C(=O)CSc2nc3ccccc3nc2Cc2ccccc2)CC1	25.3%	9.4%	-15.0%
18	CC(C)C(=O)Nc1nc2c(ncn2[C@H]2CC(O)[C@@H](CO)O2)c(=O)[nH]1 (stereo not given in full)	9.9%	/	/
19	CN(CCO)c1nc(-c2cccs2)nc2ccccc12	-0.3%	/	/
20	O=C(Nc1ccccc1)c1ccc(-n2nncc2-c2ccccc2)cc1	2.8%	/	/
21	CCOc1ccccc1C(=O)N1CCC(c2nc3ccccc3o2)CC1	-17.0%	7.6%	-4.6%
22	N#C[C@H]1C[C@H]2C[C@@H]2N1C(=O)[C@@H](N)C12CC3CC(CC(O)(C3)C1)C2	/	/	/
23	O=C(CSc1nc2ccccc2nc1Cc1ccc(Cl)cc1)N1CCCCC1	2.7%	-9.2%	-0.3%
24	CC1CCN(C(=O)CSc2nc(C3CC3)nc3ccccc23)CC1	0.4%	4.3%	-5.2%
25	O=C(CSc1nc(N2CCCCC2)nc(N2CCCCC2)n1)N1CCN(c2ccccc2)CC1	?	-1.9%	-21.1%
26	Cc1nc(SCC(=O)N2CCN(c3ccccc3)CC2)n[nH]1	-3.9%	-0.6%	5.4%
27	CC1CCCCN1C(=O)CSc1nc2ccccc2nc1Cc1ccc(Cl)cc1 (stereo not given)	-0.5%	19.6%	0.8%

cpd	GLP-1R inv ag	GLP1R ag	PTHR1 ag
13	11.2µM*	/	i
14	?	0.4%	-13.3%
15	10µM*	-1.1%	-17.2%
16	3.98µM*	-31.5%	-2.2%
17	11.2µM*	2.2%	-17.6%
18	/	/	/
19	/	/	/
20	/	/	/
21	4.5%	/	-18.3%
22	/	-3.6%	/
23	10µM*	/	-6.9%
24	?	22.1%	-15.4%
25	2.82µM*	-0.4%	-6.4%[57.5 µM]
26	-3.7%	3.9%	i
27	5.01µM*	/	-15.3%

Screening data from PubChem.
